From patent publication EP4847510A1, “TETRACYCLIC COMPOUND, AND PREPARATION METHOD, PHARMACEUTICAL COMPOSITION, AND USE THEREOF” (dated 2026)

Protein sequences, listed by entry. Tags and fused reporters are not part of them.
UniProt P28223, whole entry: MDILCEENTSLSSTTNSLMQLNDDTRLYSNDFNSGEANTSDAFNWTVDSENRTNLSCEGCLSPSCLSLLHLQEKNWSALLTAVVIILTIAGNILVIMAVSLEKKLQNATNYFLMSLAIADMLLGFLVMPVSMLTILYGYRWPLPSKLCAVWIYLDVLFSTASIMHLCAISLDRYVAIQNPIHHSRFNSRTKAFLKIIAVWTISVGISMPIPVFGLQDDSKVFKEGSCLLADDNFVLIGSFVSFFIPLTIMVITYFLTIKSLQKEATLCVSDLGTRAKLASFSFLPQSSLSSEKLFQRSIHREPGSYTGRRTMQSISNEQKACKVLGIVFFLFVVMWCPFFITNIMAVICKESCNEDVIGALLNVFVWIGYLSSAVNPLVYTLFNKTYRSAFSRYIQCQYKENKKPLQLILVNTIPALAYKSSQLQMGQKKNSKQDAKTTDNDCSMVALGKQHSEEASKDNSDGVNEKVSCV

Tests used:
5HT2A receptor [1] = biological target: T1, 5HT2A receptor (Homo sapiens, UniProt P28223); assay: Downstream calcium flux functional activity assay, method 1 (HEK293 cells stably expressing the receptor); settings: for Ca^2+ flux Assay Emax%: method 1, highest concentration of 5-HT = 100%; for EC50: read-out: Ca^2+ flux Assay EC50, method 1, HEK293-5HT2AR cells
5HT2A receptor [2] = biological target: T1, 5HT2A receptor; assay: Downstream beta-arrestin functional activity assay, method 1 (NanoBit); settings: for β-arrestin Emax%: method 1, highest concentration of 5-HT = 100%; for EC50: read-out: β-arrestin EC50, method 1, HEK293 cells
5HT2A receptor [3] = biological target: T1, 5HT2A receptor; assay: Affinity assay for 5-HT2A receptor, radioligand competition with [3H]-ketanserin; settings: read-out: [3H]Ketanserin Ki; membranes of HEK293 cells stably expressing the 5-HT2A receptor
5HT2A receptor [4] = biological target: T1, 5HT2A receptor; assay: Downstream beta-arrestin functional activity assay, method 2 (NanoBret); settings: for β-arrestin Emax%: method 2, highest concentration of 5-HT = 100%; for EC50: read-out: β-arrestin EC50, method 2, HEK293 cells
5HT2A receptor [5] = biological target: T1, 5HT2A receptor; assay: Downstream calcium flux functional activity assay, method 2 (HEK293 cells transiently transfected); settings: for Ca^2+ flux Assay Emax%: method 2, highest concentration of 5-HT = 100%; for EC50: read-out: Ca^2+ flux Assay EC50, method 2, transiently transfected HEK293 cells

| Ca^2+ flux Assay Emax% (5HT2A receptor [1]) [%] | EC50 (5HT2A receptor [1]) [nM] | β-arrestin Emax% (5HT2A receptor [2]) [%] | EC50 (5HT2A receptor [2]) [nM] | Ki (5HT2A receptor [3]) [nM] | β-arrestin Emax% (5HT2A receptor [4]) [%] | EC50 (5HT2A receptor [4]) [nM] | Ca^2+ flux Assay Emax% (5HT2A receptor [5]) [%] | EC50 (5HT2A receptor [5]) [nM] | Compound |
| --- | --- | --- | --- | --- | --- | --- | --- | --- | --- |
| 25.06 | > 100000 | 44.38 | 15.6 | 225 |  |  |  |  | CN1CCN2c3c(cccc31)[C@@H]1CN(CCCc3cccc4c3OCCC4)CC[C@@H]12 |
| 6.52 | > 100000 |  |  | 359 |  |  |  |  | CN1CCN2c3c(cccc31)[C@@H]1CN(CCCc3ccccc3OCC(C)(C)O)CC[C@@H]12 |
|  |  | 49.46 | 170 | 176 |  |  |  |  | CN1CCN2c3c(cccc31)[C@@H]1CN(CCC(F)c3cccc4c3OCC4)CC[C@@H]12 (stereo partly shown) |
| 31.89 | > 100000 | 37.21 | 29.1 | 205 |  |  |  |  | CN1CCN2c3c(cccc31)[C@@H]1CN(CCCc3ccccn3)CC[C@@H]12 |
|  |  |  |  | 6.07 | 59.0 | 236 | 8.64 | > 100000 | CN1CCN2c3c(cccc31)[C@@H]1CN(CC(F)Cc3cccc4c3OCC4)CC[C@@H]12 (stereo partly shown) |
| 1.15 | > 100000 |  |  | 37.9 |  |  |  |  | CN1CCN2c3c(cccc31)[C@@H]1CN(CCCc3ccccc3OCC(F)(F)F)CC[C@@H]12 |
| 1.44 | > 100000 |  |  | 127 |  |  |  |  | CN1CCN2c3c(cccc31)[C@@H]1CN(CCCc3nccc4c3CCO4)CC[C@@H]12 |
|  |  |  |  |  | 12.8 | 32.8 | 14.8 | 994 | CN1C(=O)CN2c3c(cccc31)[C@@H]1CN(CCOc3cccc4c3OCC4)CC[C@@H]12 |
|  |  |  |  | 358 |  |  |  |  | CN1CCN2c3c(cccc31)[C@@H]1CN(CCCN3CCCCC3)CC[C@@H]12 |
| 5.13 | > 100000 |  |  | 7.04 |  |  |  |  | CN1CCN2c3c(cccc31)[C@@H]1CN(CCCc3ccccc3N)CC[C@@H]12 |
| 1.24 | > 100000 | 20.54 | 1270 |  |  |  |  |  | COc1ccncc1CCCN1CC[C@H]2[C@@H](C1)c1cccc3c1N2CCN3C |
|  |  |  |  |  | 44.9 | 329 | 38.55 | 22.3 | O=C1CN2c3c(cccc3[C@@H]3CN(CCCc4ccc(O)c5c4OCC5)CC[C@@H]32)N1 |
|  |  |  |  |  | 70.8 | 362 | 73.85 | 230 | CC(CCc1cccc2c1OCC2)N1CC[C@H]2[C@@H](C1)c1cccc3c1N2CC(=O)N3 (stereo partly shown) |
|  |  |  |  |  | 43.44 | 170 | 26.72 | 1110 | CC1(C)Cc2cccc(CCCN3CC[C@H]4[C@@H](C3)c3cccc5c3N4CC(=O)N5)c2O1 |
|  |  |  |  | 308 |  |  |  |  | CN1CCN2c3c(cccc31)[C@@H]1CN(CCCc3ccccc3OCCO)CC[C@@H]12 |
| 7.01 | > 100000 |  |  | 50.6 |  |  |  |  | CSc1ccccc1CCCN1CC[C@H]2[C@@H](C1)c1cccc3c1N2CCN3C |
|  |  |  |  |  | 34.4 | 96.3 | 46.83 | > 100000 | O=C1CN2c3c(cccc3[C@@H]3CN(CCCc4c(Cl)ccc5c4OCC5)CC[C@@H]32)N1 |

Second part, the compound before the results:

| Compound | Ca^2+ flux Assay Emax% (5HT2A receptor [1]) [%] | EC50 (5HT2A receptor [1]) [nM] | β-arrestin Emax% (5HT2A receptor [2]) [%] | EC50 (5HT2A receptor [2]) [nM] | Ki (5HT2A receptor [3]) [nM] | β-arrestin Emax% (5HT2A receptor [4]) [%] | EC50 (5HT2A receptor [4]) [nM] | Ca^2+ flux Assay Emax% (5HT2A receptor [5]) [%] | EC50 (5HT2A receptor [5]) [nM] |
| --- | --- | --- | --- | --- | --- | --- | --- | --- | --- |
| CN1CCN2c3c(cccc31)[C@@H]1CN(CCCc3cccc4c3NCCC4)CC[C@@H]12 | 5.58 | > 100000 |  |  | 42.3 |  |  |  |  |
| COc1ccccc1C(=O)CCN1CC[C@H]2[C@@H](C1)c1cccc3c1N2CCN3C |  |  | 118.20 | 79.4 | 194 |  |  |  |  |
| CN1CCN2c3c(cccc31)[C@@H]1CN(CCCc3cccc4ncoc34)CC[C@@H]12 | -0.04 | > 100000 |  |  | 12.5 |  |  |  |  |
| CN1CCN2c3c(cccc31)[C@@H]1CN(CCCc3cccc4c3NCC4)CC[C@@H]12 | 6.06 | > 100000 |  |  | 2.99 |  |  |  |  |
| O=C1CN2c3c(cccc3[C@@H]3CN(CCCc4cccc5c4OCC5)CC[C@@H]32)N1 |  |  |  |  | 14.9 | 30.2 | 163 | 1.12 | > 100000 |
| CN1CCN2c3c(cccc31)[C@@H]1CN(C/C=C/c3cccc4ccoc34)CC[C@@H]12 | 43.89 | 41800 |  |  | 22.4 |  |  |  |  |
| CN1CCN2c3c(cccc31)[C@@H]1CN(CCCc3cccs3)CC[C@@H]12 | 10.40 | > 100000 |  |  | 110 |  |  |  |  |
| CN1CCN2c3c(cccc31)[C@@H]1CN(CCCc3ccccc3N3CCOCC3)CC[C@@H]12 | 6.29 | > 100000 |  |  | 247 |  |  |  |  |
| c1cc(CCCN2CCC3C(C2)c2cccc4c2N3CCC4)c2c(c1)CCO2 (stereo not shown) | 0.81 | > 100000 | 39.41 | 30.9 | 6.11 |  |  |  |  |
| CN1CCN2c3c(cccc31)[C@@H]1CN(CCC(O)c3ccccc3)CC[C@@H]12 (stereo partly shown) |  |  |  |  | 416 |  |  |  |  |
| CN1CCN2c3c(cccc31)[C@@H]1CN(CCc3nc4ccccc4o3)CC[C@@H]12 | 0.88 | > 100000 | 46.87 | 717 |  |  |  |  |  |
| c1cc(CCCN2CCC3C(C2)c2cccc4c2N3CCS4)c2c(c1)CCO2 (stereo not shown) |  |  |  |  | 3.58 | 130.9 | 139 | 74.77 | 4420 |
| c1cc(CCCN2CCC3C(C2)c2cccc4c2N3CCO4)c2c(c1)CCO2 (stereo not shown) |  |  | 25.65 | 101 | 8 |  |  |  |  |
| CN1CCN2c3c(cccc31)[C@@H]1CN(CCCc3cccc4cc[nH]c34)CC[C@@H]12 | 21.06 | 46000 |  |  | 2.43 |  |  |  |  |
| CN1CCN2c3c(cccc31)[C@@H]1CN(CCC3COc4ccccc43)CC[C@@H]12 (stereo partly shown) | 5.58 | > 100000 |  |  | 72 |  |  |  |  |
| CN1CCN2c3c(cccc31)[C@@H]1CN(CCCc3cccc4c3CCO4)CC[C@@H]12 | 0.40 | > 100000 |  |  | 4.21 |  |  |  |  |
| CN1CCN2c3c(cccc31)[C@@H]1CN(CCc3c[nH]c4ccccc34)CC[C@@H]12 | 9.60 | > 100000 |  |  | 170 |  |  |  |  |
| c1cc(CCCN2CC[C@H]3[C@@H](C2)c2cccc4c2N3CCN4C2COC2)c2c(c1)CCO2 |  |  |  |  | 3.28 | 56.2 | 95.4 | 4.91 | > 100000 |
| CN1CCN2c3c(cccc31)[C@@H]1CN(CCc3cccc4ccoc34)CC[C@@H]12 |  |  |  |  |  | 50.4 | 67.5 | 12.74 | 156 |
| CN1C(=O)CN2c3c(cccc31)[C@@H]1CN(CCCc3scc4c3OCC4)CC[C@@H]12 |  |  |  |  |  | 68.1 | 46.1 | 34.01 | 61 |
| COc1ncccc1CCCN1CC[C@H]2[C@@H](C1)c1cccc3c1N2CCN3C | 3.72 | > 100000 |  |  | 85.4 |  |  |  |  |
| CN1CCN2c3c(cccc31)[C@@H]1CN(CCC(=O)c3ccncc3)CC[C@@H]12 |  |  | 86.37 | 282 |  |  |  |  |  |
| COc1ccccc1NCCN1CC[C@H]2[C@@H](C1)c1cccc3c1N2CCN3C |  |  |  |  | 353 |  |  |  |  |
| CC(=O)c1ccccc1CCCN1CC[C@H]2[C@@H](C1)c1cccc3c1N2CCN3C |  |  |  |  | 77.3 |  |  |  |  |
| CN1CCN2c3c(cccc31)[C@@H]1CN(CCCc3ccccc3C#N)CC[C@@H]12 | 5.10 | > 100000 |  |  | 37.4 |  |  |  |  |
| O=C1CN2c3c(cccc3[C@@H]3CN(CCCc4ccc(F)c5c4OCC5)CC[C@@H]32)N1 |  |  |  |  |  | 59.1 | 524 | 2.23 | > 100000 |
